# Measurements: patent publication US11013745B2, “Triazolopyrimidine, triazolopyridine compounds, and the composition thereof for treating PRC2-mediated diseases” (SHANGHAI INSTITUTE OF MATERIA MEDICA, CHINESE ACADEMY OF …, priority 2017, dated 2021)
# Sequences of proteins named here, by UniProt entry; tags and fusion partners are left off.
# UniProt O75530, whole entry: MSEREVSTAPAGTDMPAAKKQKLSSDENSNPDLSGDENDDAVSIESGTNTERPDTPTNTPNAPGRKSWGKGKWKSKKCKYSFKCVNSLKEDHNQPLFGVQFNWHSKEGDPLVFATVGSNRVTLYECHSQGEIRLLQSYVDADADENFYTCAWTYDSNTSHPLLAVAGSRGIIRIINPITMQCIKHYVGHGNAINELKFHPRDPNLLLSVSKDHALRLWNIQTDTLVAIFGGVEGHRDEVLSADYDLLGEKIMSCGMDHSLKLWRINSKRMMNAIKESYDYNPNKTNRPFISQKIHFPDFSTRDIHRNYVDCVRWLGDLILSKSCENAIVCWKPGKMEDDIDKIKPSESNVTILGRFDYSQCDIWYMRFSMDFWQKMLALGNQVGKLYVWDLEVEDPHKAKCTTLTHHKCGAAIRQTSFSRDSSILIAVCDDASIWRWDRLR
# Target: PRC2 enzyme (Homo sapiens (Human), UniProt O75530)
# Experiment: PRC2 enzyme activity, TR-FRET method
# Assay type: biochemical
# Procedure: The TR-FRET method was used to measure the PRC2 enzyme activity. First, the enzyme was mixed with compounds at different concentrations and incubated for 30 min at room temperature. The biotin-labeled histone H3 peptide substrate and the cofactor S-adenosylmethionine (SAM) were added to initiate the enzymatic reaction. After reaction was performed at room temperature for 4 hour, Acceptor and Donor were added and incubated for half an hour. The multifunctional microplate reader EnVision (Perkin Elmer Inc.) was used to detect the fluorescence signal. Data were analyzed using GraphPad Prism 5.0 software, and IC50 values were obtained.
row,IC50 [nM],SMILES
1,511,C1=C(c2cnc(NCc3ccco3)n3cnnc23)CCOC1 [E-Y4]
2,107,O=C(NCc1ccccc1)N1CC=C(c2cnc(NCc3ccco3)n3cnnc23)CC1 [E-Y28]
3,18,Fc1ccc2c(c1CNc1ncc(C3=CCOCC3)c3nncn13)CCO2 [E-Y1]
